Experimental data: US6500222B2, “Diureides and their use” (priority 1999, dated 2002)

System: ryegrass
Conditions: in vivo

malonic acid diureide [Compound 1A]
Remarks (plant damage): no plant damage
